Assay results published in patent US4743611A, “Naphthalenylsulfonylimidazolidinediones and their thioxo analogs useful as aldose reductase inhibitors” (American Home Products Corp., priority 1987, dated 1988).

Biological target: T1, aldose reductase (Bos taurus, UniProt P16116)
T1 construct: preparation of the enzyme from bovine lens; from tissue; host or cells: bovine lens
Assay: in vitro inhibition of aldose reductase (enzyme from bovine lens, modified Hayman and Kinoshita procedure)
Format: biochemical
Details: read-out: % inhibition in vitro
Method: […] The aldose reductase inhibiting effects of the compounds of formula (I) were also tested by employing an in vitro testing procedure similar to that described by S. Hayman and J. H. Kinoshita, J. Biol. Chem., 240, 877 (1965).
In the present case the procedure of Hayman and Kinoshita was modified in that the final chromatography step was omitted in the preparation of the enzyme from bovine lens.

Work on O=C1CN(S(=O)(=O)c2cccc3c(I)cccc23)C(=O)N1 [Example 18, 1-[(5-iodo-1-naphthalenyl)sulfonyl]-2,4-imidazolidinedione] yielded an inhibition at 10 µM of 94%.
